Source: patent publication US9328139B2, “Cyclin based inhibitors of CDK2 and CDK4” (University of South Carolina, priority 2010, dated 2016)

Target: Cyclin A (Homo sapiens, UniProt P20248)
Assay: Previously determined kinase inhibition, cyclin A (CDK2/cyclin A)
Type: biochemical
Settings: log of IC50 in μM

LogIC50, Cyclin A: 0.08
Sequence: PVKRRLDL
